Results taken from ChEMBL document CHEMBL3596098, “Insights into the interaction of negative allosteric modulators with the metabotropic glutamate receptor 5: discovery and computational modeling of a new series of ligands with nanomolar affinity” (Bioorg Med Chem, 2015).

By UniProt entry, the sequences of proteins in these tests, tags left out.
UniProt P31424, whole entry: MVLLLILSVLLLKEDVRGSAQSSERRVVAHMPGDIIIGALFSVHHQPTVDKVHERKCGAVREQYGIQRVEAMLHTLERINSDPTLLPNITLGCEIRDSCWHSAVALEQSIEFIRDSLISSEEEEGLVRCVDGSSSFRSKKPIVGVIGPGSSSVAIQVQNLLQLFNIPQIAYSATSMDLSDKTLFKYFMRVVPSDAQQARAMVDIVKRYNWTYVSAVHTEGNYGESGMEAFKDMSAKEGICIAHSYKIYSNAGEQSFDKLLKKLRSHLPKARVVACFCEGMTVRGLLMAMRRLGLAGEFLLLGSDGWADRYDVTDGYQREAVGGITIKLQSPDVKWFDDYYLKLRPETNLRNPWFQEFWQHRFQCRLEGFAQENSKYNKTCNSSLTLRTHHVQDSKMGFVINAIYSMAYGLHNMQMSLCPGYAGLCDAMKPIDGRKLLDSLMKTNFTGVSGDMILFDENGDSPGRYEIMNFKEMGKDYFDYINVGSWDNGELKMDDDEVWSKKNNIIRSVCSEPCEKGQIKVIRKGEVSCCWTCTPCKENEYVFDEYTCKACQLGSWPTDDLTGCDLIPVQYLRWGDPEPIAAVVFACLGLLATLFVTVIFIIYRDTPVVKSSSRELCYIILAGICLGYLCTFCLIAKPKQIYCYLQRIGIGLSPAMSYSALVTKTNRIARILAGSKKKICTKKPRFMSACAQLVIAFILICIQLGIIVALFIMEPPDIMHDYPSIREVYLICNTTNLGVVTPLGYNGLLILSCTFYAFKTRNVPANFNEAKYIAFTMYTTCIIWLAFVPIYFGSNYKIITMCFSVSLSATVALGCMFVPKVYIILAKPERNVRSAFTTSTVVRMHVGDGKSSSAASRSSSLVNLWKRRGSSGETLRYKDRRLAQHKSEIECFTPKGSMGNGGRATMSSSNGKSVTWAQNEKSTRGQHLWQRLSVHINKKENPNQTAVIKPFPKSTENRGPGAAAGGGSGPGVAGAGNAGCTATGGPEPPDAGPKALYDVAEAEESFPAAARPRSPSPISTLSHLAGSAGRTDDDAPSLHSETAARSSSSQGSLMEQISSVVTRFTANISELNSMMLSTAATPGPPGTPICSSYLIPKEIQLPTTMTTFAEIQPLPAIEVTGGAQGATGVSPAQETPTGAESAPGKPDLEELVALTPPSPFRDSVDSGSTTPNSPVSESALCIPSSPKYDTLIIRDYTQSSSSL
UniProt P41594, whole entry: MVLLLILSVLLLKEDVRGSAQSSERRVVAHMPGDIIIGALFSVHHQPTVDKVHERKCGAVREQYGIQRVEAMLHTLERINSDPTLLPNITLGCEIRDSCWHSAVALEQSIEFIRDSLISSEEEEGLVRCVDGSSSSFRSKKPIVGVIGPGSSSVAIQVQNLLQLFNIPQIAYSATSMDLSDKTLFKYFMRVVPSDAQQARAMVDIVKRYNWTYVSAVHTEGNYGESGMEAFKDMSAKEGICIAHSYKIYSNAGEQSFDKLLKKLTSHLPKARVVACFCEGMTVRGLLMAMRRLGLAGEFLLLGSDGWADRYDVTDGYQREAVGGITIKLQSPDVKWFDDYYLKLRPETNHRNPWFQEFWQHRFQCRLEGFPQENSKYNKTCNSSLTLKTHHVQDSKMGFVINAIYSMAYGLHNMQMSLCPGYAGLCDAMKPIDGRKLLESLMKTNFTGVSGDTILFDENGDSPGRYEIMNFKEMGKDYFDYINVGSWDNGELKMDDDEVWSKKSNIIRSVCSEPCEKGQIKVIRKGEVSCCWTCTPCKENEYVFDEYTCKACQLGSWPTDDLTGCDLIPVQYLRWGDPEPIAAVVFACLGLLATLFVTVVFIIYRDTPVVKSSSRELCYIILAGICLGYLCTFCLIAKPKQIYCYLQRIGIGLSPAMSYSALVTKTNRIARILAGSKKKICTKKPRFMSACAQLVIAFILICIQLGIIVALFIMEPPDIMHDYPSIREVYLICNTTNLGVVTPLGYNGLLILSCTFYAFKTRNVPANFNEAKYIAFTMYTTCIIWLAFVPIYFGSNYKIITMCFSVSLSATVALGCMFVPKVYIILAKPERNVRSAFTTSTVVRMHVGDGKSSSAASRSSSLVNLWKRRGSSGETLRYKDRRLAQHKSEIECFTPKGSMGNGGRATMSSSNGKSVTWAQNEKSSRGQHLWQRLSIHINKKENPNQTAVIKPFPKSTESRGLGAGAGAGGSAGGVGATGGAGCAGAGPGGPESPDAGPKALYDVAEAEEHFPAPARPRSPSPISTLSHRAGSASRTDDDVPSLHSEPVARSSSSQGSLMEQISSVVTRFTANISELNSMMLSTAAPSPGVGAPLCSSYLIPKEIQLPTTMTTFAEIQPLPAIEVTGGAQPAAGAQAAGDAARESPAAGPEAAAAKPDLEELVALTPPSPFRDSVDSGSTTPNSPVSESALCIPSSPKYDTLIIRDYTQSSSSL

Key:
[1] = molecular target: Metabotropic glutamate receptor 5 (Rattus norvegicus, UniProt P31424); experiment: Displacement of [3H]MPEP from mGluR5 receptor in Sprague-Dawley rat forebrain membrane after 60 mins by liquid scintillation spectrometry
Procedure, shortened: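 Rat forebrain (cortex, striatum, hippocampus) homogenized in 50 mM Tris pH 7.4, washed by centrifugation with 37 °C incubations, then frozen. Membranes resuspended in 20 mM HEPES, 2 mM MgCl2, 2 mM CaCl2, pH 7.4 and incubated 60 min at 25 °C with 4 nM [3H]MPEP. Nonspecific binding with 10 µM MPEP. Filtration, scintillation counting. Ki by Cheng-Prusoff.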

[2] = molecular target: T1, Metabotropic glutamate receptor 5 (Homo sapiens, UniProt P41594); experiment: Displacement of [3H]MPEP from human cloned mGluR5 receptor expressed in CHO-T-Rex cells after 60 mins by liquid scintillation spectrometry; type: cell-based
Procedure, shortened: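 Membranes of CHO T-REx cells stably expressing human mGlu5, with expression derepressed by 1 µg/mL tetracycline for 18 h. Cells at 50 µg/well in 20 mM HEPES, 2 mM MgCl2, 2 mM CaCl2, pH 7.4, incubated 60 min at 25 °C with 4 nM [3H]MPEP. Nonspecific binding defined with 10 µM MPEP. Filtration, then scintillation counting. Ki from IC50 by Cheng-Prusoff. Three experiments, duplicate points.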

[3] = molecular target: T1, Metabotropic glutamate receptor 5; experiment: Negative allosteric modulatory activity at human cloned mGluR5 receptor expressed in CHO-T-Rex cells assessed as inhibiton of quisqualate-induced calcium mobilization treated 10 mins prior to agonist application by fluorescence analysis; type: functional, cell-based
Procedure, shortened: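 CHO T-REx cells expressing human mGlu5, induced 18 h with 3 ng/mL tetracycline and seeded at 80,000 cells/well. Loaded 1 h at 37 °C with 2 µM Fluo-4/AM in HBSS with 20 mM HEPES and 2.5 mM probenecid, then washed. Compound (0.5% DMSO final) added 10 min before quisqualate at its daily EC80. Peak minus basal fluorescence read every 1.5 s for 60 s.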

Ki [1] [nM]	Ki [2] [nM]	IC50 [3] [nM]	SMILES
11.2	4.7	6.1	Cc1nc(C#Cc2ccc(-c3cccnc3)nc2)cs1
15.3			Cc1cccc(C#Cc2ccccc2)n1
38.5	32.7	47.3	Cc1nc(C#Cc2cccnc2)cs1
